Assays:
CRF2R = molecular target: T1, CRF2R (Homo sapiens, UniProt Q13324); experiment: CRF2R agonist activation (EC50 / Emax), called comparative CRF binding; type: cell-based; conditions: for Emax: read-out: CRF2R Emax
T1 sequence (Q13324 1-411): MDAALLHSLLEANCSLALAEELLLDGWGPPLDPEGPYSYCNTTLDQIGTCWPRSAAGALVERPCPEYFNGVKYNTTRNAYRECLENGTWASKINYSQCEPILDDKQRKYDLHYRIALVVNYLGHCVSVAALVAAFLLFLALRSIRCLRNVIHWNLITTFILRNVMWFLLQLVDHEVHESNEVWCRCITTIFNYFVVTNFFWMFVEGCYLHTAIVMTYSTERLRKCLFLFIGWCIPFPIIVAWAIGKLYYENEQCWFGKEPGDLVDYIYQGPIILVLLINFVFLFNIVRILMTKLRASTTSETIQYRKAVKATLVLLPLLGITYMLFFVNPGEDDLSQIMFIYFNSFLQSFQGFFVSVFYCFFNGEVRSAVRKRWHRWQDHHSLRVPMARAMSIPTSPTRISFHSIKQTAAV
Summary of the method: (§1)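 Peptides are tested on cells bearing CRF1R or CRF2R, full length or as ligand-binding-domain constructs coupled to reporters or G proteins. Activation is scored by cAMP rise, measured in lysates or by CRE-reporter output, against vehicle control.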

CRF1R = molecular target: T2, CRF1R (Homo sapiens, UniProt P34998); experiment: CRF1R agonist activation (EC50 / Emax), called comparative CRF binding; type: cell-based; conditions: for Emax: read-out: CRF1R Emax; for EC50: CRF1R EC50
T2 sequence (P34998 24-415): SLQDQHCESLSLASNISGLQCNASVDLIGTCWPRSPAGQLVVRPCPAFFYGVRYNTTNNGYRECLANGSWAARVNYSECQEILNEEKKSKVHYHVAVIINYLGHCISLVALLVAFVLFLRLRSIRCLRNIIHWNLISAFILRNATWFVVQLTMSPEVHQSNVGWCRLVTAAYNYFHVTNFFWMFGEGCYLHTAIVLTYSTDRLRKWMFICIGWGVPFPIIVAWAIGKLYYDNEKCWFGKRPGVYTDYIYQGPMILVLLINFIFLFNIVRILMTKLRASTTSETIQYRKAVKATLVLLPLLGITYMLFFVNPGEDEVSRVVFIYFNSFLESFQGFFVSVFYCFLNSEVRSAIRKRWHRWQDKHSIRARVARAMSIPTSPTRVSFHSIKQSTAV
Summary of the method: as §1

Row | SMILES | Emax (CRF2R) | Emax (CRF1R) | EC50 (CRF2R) | EC50 (CRF1R)
1 | CC[C@H](C)[C@H](NC(=O)[C@H](CCCNC(=N)N)NC(=O)[C@H](C)NC(=O)[C@H](CC(C)C)NC(=O)[C@H](CC(C)C)NC(=O)[C@H](CCCNC(=N)N)NC(=O)[C@H](C)NC(=O)[C@H](CC(N)=O)NC(=O)[C@H](CC(N)=O)NC(=O)[C@H](C)NC(=O)[C@H](C)NC(=O)[C@H](CCC(N)=O)NC(=O)[C@H](CCC(N)=O)NC(=O)[C@H](CCCCN)NC(=O)[C@H](CCC(=O)O)NC(=O)[C@H](CCCCN)NC(=O)[C@H](CCC(=O)O)NC(=O)[C@H](CCC(N)=O)NC(=O)[C@H](CCCCN)NC(=O)[C@H](CCC(=O)O)NC(=O)[C@@H](NC(=O)[C@H](CCC(=O)O)NC(=O)[C@@H](NC(=O)[C@H](CCSC)NC(=O)[C@H](CCCCN)NC(=O)[C@H](CCCNC(=N)N)NC(=O)[C@H](CC(C)C)NC(=O)[C@H](CC(C)C)NC(=O)[C@H](Cc1ccccc1)NC(=O)[C@@H](NC(=O)[C@@H]1CCCN1C(=O)[C@H](CC(C)C)NC(=O)[C@H](CC(=O)O)NC(=O)[C@@H](NC(=O)[C@H](CO)NC(=O)[C@@H](NC(=O)[C@@H]1CCCN1C(=O)[C@@H]1CCCN1C(=O)CNC(=O)[C@@H]1CCC(=O)N1)[C@@H](C)CC)[C@@H](C)CC)[C@@H](C)CC)[C@@H](C)CC)[C@@H](C)CC)C(N)=O [compound 282] | 60.8% | 21.8% |  | 
2 | CC[C@H](C)[C@H](NC(=O)[C@H](CCCNC(=N)N)NC(=O)[C@H](C)NC(=O)[C@H](CC(C)C)NC(=O)[C@H](CC(C)C)NC(=O)[C@H](CCCNC(=N)N)NC(=O)[C@H](C)NC(=O)[C@H](CC(N)=O)NC(=O)[C@H](CC(N)=O)NC(=O)[C@H](C)NC(=O)[C@H](C)NC(=O)[C@H](CCC(N)=O)NC(=O)[C@H](CCC(N)=O)NC(=O)[C@H](CCCCN)NC(=O)[C@H](CCC(=O)O)NC(=O)[C@H](CCCCN)NC(=O)[C@H](CCC(=O)O)NC(=O)[C@H](CCC(N)=O)NC(=O)[C@H](CCCCN)NC(=O)[C@H](CCC(=O)O)NC(=O)[C@@H](NC(=O)[C@H](CCC(=O)O)NC(=O)[C@@H](NC(=O)[C@@H](NC(=O)[C@H](CCCCN)NC(=O)[C@H](CCCNC(=N)N)NC(=O)[C@H](CC(C)C)NC(=O)[C@H](CC(C)C)NC(=O)[C@@H](NC(=O)[C@H](CCC(N)=O)NC(=O)[C@@H]1CCCN1C(=O)[C@H](CC(C)C)NC(=O)[C@H](CC(=O)O)NC(=O)[C@@H](NC(=O)[C@H](CO)NC(=O)[C@@H](NC(=O)[C@@H]1CCCN1C(=O)[C@@H]1CCCN1C(=O)CNC(=O)[C@@H]1CCC(=O)N1)[C@@H](C)CC)[C@@H](C)CC)[C@@H](C)CC)C(C)C)[C@@H](C)CC)[C@@H](C)CC)C(N)=O [compound 294] | 100% | 13.6% |  | 
3 | CC[C@H](C)[C@H](NC(=O)[C@H](CCCNC(=N)N)NC(=O)[C@H](C)NC(=O)[C@H](CC(N)=O)NC(=O)[C@@H](NC(=O)[C@@H](NC(=O)[C@H](C)NC(=O)[C@H](CCC(N)=O)NC(=O)[C@H](CCC(N)=O)NC(=O)[C@H](CCCCN)NC(=O)[C@H](CCC(=O)O)NC(=O)[C@H](CCCCN)NC(=O)[C@H](CCC(=O)O)NC(=O)[C@H](CCC(N)=O)NC(=O)[C@H](CCCCN)NC(=O)[C@H](CCC(=O)O)NC(=O)[C@@H](NC(=O)[C@H](CCC(=O)O)NC(=O)[C@@H](NC(=O)[C@H](CCSC)NC(=O)[C@H](CCCCN)NC(=O)[C@H](CCCNC(=N)N)NC(=O)[C@H](CC(C)C)NC(=O)[C@H](CC(C)C)NC(=O)[C@H](Cc1c[nH]cn1)NC(=O)[C@H](Cc1ccccc1)NC(=O)[C@@H]1CCCN1C(=O)[C@H](CC(C)C)NC(=O)[C@H](CC(=O)O)NC(=O)[C@@H](NC(=O)[C@H](CO)NC(=O)[C@@H](NC(=O)[C@@H]1CCCN1C(=O)[C@@H]1CCCN1C(=O)CNC(=O)[C@@H]1CCC(=O)N1)[C@@H](C)CC)[C@@H](C)CC)[C@@H](C)CC)[C@@H](C)CC)[C@@H](C)O)[C@@H](C)O)C(=O)N[C@@H](CC(C)C)C(=O)N[C@@H](C)C(=O)N[C@@H](CCCNC(=N)N)C(=O)N[C@H](C(N)=O)C(C)C [compound 146] | 84.5% | 100% | 8.2 nM | 103 nM
4 | CC[C@H](C)[C@H](NC(=O)[C@@H](NC(=O)[C@H](CC(=O)O)NC(=O)[C@H](CC(C)C)NC(=O)[C@H](CC(C)C)NC(=O)[C@H](CC(C)C)NC(=O)[C@H](CCCNC(=N)N)NC(=O)[C@H](CC(N)=O)NC(=O)[C@H](CC(N)=O)NC(=O)[C@H](C)NC(=O)[C@H](C)NC(=O)[C@H](CCC(N)=O)NC(=O)[C@H](CCC(N)=O)NC(=O)[C@H](CCCCN)NC(=O)[C@H](CCC(=O)O)NC(=O)[C@H](CCCCN)NC(=O)[C@H](CCC(=O)O)NC(=O)[C@H](CCC(N)=O)NC(=O)[C@H](CCCCN)NC(=O)[C@H](CCC(=O)O)NC(=O)[C@@H](NC(=O)[C@H](CCC(=O)O)NC(=O)[C@@H](NC(=O)[C@H](CCSC)NC(=O)[C@H](CCCCN)NC(=O)[C@H](CCCNC(=N)N)NC(=O)[C@H](CC(C)C)NC(=O)[C@H](CC(C)C)NC(=O)[C@H](CCC(N)=O)NC(=O)[C@@H](NC(=O)[C@@H]1CCCN1C(=O)[C@H](CC(C)C)NC(=O)[C@H](CC(=O)O)NC(=O)[C@@H](NC(=O)[C@H](CO)NC(=O)[C@@H](NC(=O)[C@@H]1CCCN1C(=O)[C@@H]1CCCN1C(=O)CNC(=O)[C@@H]1CCC(=O)N1)[C@@H](C)CC)[C@@H](C)CC)[C@@H](C)CC)[C@@H](C)CC)[C@@H](C)CC)[C@@H](C)O)C(N)=O [compound 78] | 78% | 6% | 24.6 nM | > 100 nM
5 | CC[C@H](C)[C@H](NC(=O)[C@H](CCC(=O)O)NC(=O)[C@@H](NC(=O)[C@@H](NC(=O)[C@H](CCCCN)NC(=O)[C@H](CCCNC(=N)N)NC(=O)[C@H](CC(C)C)NC(=O)[C@H](CC(C)C)NC(=O)[C@H](CCC(N)=O)NC(=O)[C@H](Cc1ccccc1)NC(=O)[C@@H]1CCCN1C(=O)[C@H](CC(C)C)NC(=O)[C@H](CC(=O)O)NC(=O)[C@@H](NC(=O)[C@H](CO)NC(=O)[C@@H](NC(=O)[C@@H]1CCCN1C(=O)[C@@H]1CCCN1C(=O)CNC(=O)[C@@H]1CCC(=O)N1)[C@@H](C)CC)[C@@H](C)CC)[C@@H](C)O)[C@@H](C)CC)C(=O)N[C@@H](CCC(=O)O)C(=O)N[C@@H](CCCCN)C(=O)N[C@@H](CCC(N)=O)C(=O)N[C@@H](CCC(=O)O)C(=O)N[C@@H](CCCCN)C(=O)N[C@@H](CCC(=O)O)C(=O)N[C@@H](CCCCN)C(=O)N[C@@H](CCC(N)=O)C(=O)N[C@@H](CCC(N)=O)C(=O)N[C@@H](C)C(=O)N[C@H](C(=O)N[C@H](C(=O)N[C@@H](CC(N)=O)C(=O)N[C@@H](C)C(=O)N[C@@H](CCCNC(=N)N)C(=O)N[C@@H](CC(C)C)C(=O)N[C@@H](CC(C)C)C(=O)N[C@@H](CC(=O)O)C(=O)N[C@@H](CCCNC(=N)N)C(=O)N[C@H](C(N)=O)C(C)C)[C@@H](C)O)[C@@H](C)O [compound 321] | 86.8% | 33.8% |  | 
6 | CC[C@H](C)[C@H](NC(=O)[C@@H](NC(=O)[C@H](CC(=O)O)NC(=O)[C@H](CC(C)C)NC(=O)[C@H](CC(C)C)NC(=O)[C@H](CC(C)C)NC(=O)[C@H](CCCNC(=N)N)NC(=O)[C@H](CC(N)=O)NC(=O)[C@H](CC(N)=O)NC(=O)[C@H](C)NC(=O)[C@H](C)NC(=O)[C@H](CCC(N)=O)NC(=O)[C@H](CCC(N)=O)NC(=O)[C@H](CCCCN)NC(=O)[C@H](CCC(=O)O)NC(=O)[C@H](CCCCN)NC(=O)[C@H](CCC(=O)O)NC(=O)[C@H](CCC(N)=O)NC(=O)[C@H](CCCCN)NC(=O)[C@H](CCC(=O)O)NC(=O)[C@@H](NC(=O)[C@H](CCC(=O)O)NC(=O)[C@@H](NC(=O)[C@H](CCSC)NC(=O)[C@H](CCCCN)NC(=O)[C@H](CCCNC(=N)N)NC(=O)[C@H](CC(C)C)NC(=O)[C@H](CC(C)C)NC(=O)[C@H](Cc1c[nH]c2ccccc12)NC(=O)[C@H](Cc1c[nH]cn1)NC(=O)[C@@H]1CCCN1C(=O)[C@H](CC(C)C)NC(=O)[C@H](CC(=O)O)NC(=O)[C@@H](NC(=O)[C@H](CO)NC(=O)[C@@H](NC(=O)[C@@H]1CCCN1C(=O)[C@@H]1CCCN1C(=O)CNC(=O)[C@@H]1CCC(=O)N1)[C@@H](C)CC)[C@@H](C)CC)[C@@H](C)CC)[C@@H](C)CC)[C@@H](C)O)C(N)=O [compound 186] | 100% | 100% |  | 
